# Values of other authors, collected in patent US8420667B2, “Isoquinolinone derivatives as NK3 antagonists” (H. Lundbeck A/S, priority 2008, dated 2013).
# Amino acid sequences for entries named in this document (tags omitted).
# UniProt P29371, whole entry: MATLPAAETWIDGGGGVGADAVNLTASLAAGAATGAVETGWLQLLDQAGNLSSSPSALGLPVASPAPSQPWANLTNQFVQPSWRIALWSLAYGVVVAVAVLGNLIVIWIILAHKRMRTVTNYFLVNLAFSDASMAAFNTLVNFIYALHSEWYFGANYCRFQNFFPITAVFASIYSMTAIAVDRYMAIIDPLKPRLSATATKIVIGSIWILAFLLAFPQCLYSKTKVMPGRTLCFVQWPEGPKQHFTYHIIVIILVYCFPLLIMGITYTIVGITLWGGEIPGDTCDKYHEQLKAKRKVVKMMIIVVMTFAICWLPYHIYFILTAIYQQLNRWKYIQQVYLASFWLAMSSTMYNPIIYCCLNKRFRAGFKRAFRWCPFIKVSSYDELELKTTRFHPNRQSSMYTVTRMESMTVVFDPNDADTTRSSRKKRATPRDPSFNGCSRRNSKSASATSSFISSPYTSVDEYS
# Target: NK3 receptor (Homo sapiens, UniProt P29371)
# Settings: clinical trials; delusions, hallucinations and paranoia; cited from earlier work
structure (smiles),measurement,value
"CC(=O)N(C)C1(c2ccccc2)CCN(CCC[C@]2(c3ccc(Cl)c(Cl)c3)CCCN(C(=O)c3ccccc3)C2)CC1 [Osanetant, osanetant]",effect versus placebo on positive symptoms of psychosis,superior to placebo
